Assay results as given in publication PMC10806771 (Chemical Science, 2023).

Legend:
HER2 = conditions: versus Kadcyla; cited from earlier work
[1] = system: SK-BR-3 (HER2-positive) cells; experiment: Cell viability assay; type: cell-based, human; conditions: 72 h; CellTiter-Glo; triplicate

Substance	Patient survival (HER2)	IC50 [1] [nM]
Enhertu: ADC targeting HER2, Deruxtecan conjugated to Trastuzumab	improves patient survival significantly compared to its predecessor Kadcyla	
T-DM1: ADC purchased from Roche		145
Tmab-VC-PAB-MMAE: trastuzumab ADC made by site-specific Fc-III-L6Orn conjugation, DAR = 1.91		258
Tmab-Vedotin: trastuzumab with maleimide MMAE, conjugation via cysteine, DAR = 3.28		126
